Measured values taken from PubChem BioAssay AID1529 (NMMLSC, 2009).
The entries are a selection whose mix differs from that of the whole data set. Some salts or complexes appear as unconnected parts, following the source record. Activity calls are given as the source filed them.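 How the source made its calls: active means binding response more than 3 SD above or below the average of its plate-row segment, actives on both sides; inconclusive means wells at one plate position flagged as instrument error; inactive means the rest.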

Amino acid sequences for entries named in this document (tags omitted).
UniProt Q99759, whole entry: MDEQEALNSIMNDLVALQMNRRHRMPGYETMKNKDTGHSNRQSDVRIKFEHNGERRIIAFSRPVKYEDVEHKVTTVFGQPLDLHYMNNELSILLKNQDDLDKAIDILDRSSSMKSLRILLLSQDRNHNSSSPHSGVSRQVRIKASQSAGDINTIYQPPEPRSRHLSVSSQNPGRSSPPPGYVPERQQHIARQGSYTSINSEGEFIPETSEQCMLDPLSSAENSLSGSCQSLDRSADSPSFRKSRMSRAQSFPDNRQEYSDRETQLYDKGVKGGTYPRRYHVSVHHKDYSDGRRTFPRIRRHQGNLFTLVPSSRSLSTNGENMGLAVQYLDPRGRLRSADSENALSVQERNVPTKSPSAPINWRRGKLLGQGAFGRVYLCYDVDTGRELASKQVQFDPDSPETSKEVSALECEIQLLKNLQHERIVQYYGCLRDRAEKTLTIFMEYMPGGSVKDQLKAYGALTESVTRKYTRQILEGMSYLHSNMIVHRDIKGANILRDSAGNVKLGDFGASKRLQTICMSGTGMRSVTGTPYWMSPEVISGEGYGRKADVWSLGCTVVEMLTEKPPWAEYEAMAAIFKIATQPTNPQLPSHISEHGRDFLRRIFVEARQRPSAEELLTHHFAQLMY

target: Mitogen-activated protein kinase kinase kinase 3 (Homo sapiens) (UniProt Q99759); assay: compounds raising or lowering MEK5 association with MEKK3 PB1 – biochemical, wildtype MEKK3, multiplex bead flow cytometry, Alexa488-MEK5, primary screen (AID 1529); details: bead-based flow cytometry, Alexa488-MEK5 binding to MEKK3; at 10 µM; actives lie on both sides; 0 = blocked by unlabeled MEK5, 100 = vehicle;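 further: Alexa488 bead fluorescence after subtracting the streptavidin-only scavenger bead signal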

| SMILES | binding response (% of control) |
| --- | --- |
| CCN(CC)CCCOC(=O)C(O)(c1ccccc1)c1ccccc1 | inactive: 104% |
| CCOC(=O)c1ccc(NP(C)(=O)Oc2ccccc2)cc1 (configuration not stated) | inactive: 97% |
| COc1ccccc1OP(C)(=O)Nc1ccc(C)cc1 (configuration not stated) | inactive: 98% |
| COc1ccccc1OP(C)(=O)Nc1cc(Cl)ccc1C (configuration not stated) | inactive: 105% |
| Cc1cc(C)cc(OP(C)(N)=O)c1 (configuration not stated) | inactive: 98% |
| CC(C)(C)c1ccc(OP(C)(=O)Nc2ccc(SC(F)(F)F)cc2)cc1 (configuration not stated) | inactive: 104% |
| Cc1cccc(C)c1OP(C)(N)=O (configuration not stated) | inactive: 104% |
| O=[N+]([O-])c1ccc2c(c1)C=Nc1ccccc1O2 | inactive: 106% |
| CP(=S)(Nn1cnnc1)Oc1ccccc1 (configuration not stated) | inactive: 100% |
| COc1ccccc1OP(C)(=O)Nc1ccccc1 (configuration not stated) | inactive: 101% |
| CP(=O)(Nc1ccccc1Br)Oc1ccccc1 (configuration not stated) | inactive: 99% |
| CCOP(C)(=S)SCC(=O)NC(C)C(=O)O (configuration not stated) | inactive: 103% |
| CCOC(=O)c1ccc(NP(C)(=O)Oc2ccc(OC)cc2)cc1 (configuration not stated) | inactive: 88% |
| CP(=O)(Nc1ccccn1)Oc1ccc(Cl)cc1 (configuration not stated) | inactive: 99% |
| CP(=O)(Nc1ccc(SC(F)(F)F)cc1)Oc1ccc(Cl)cc1 (configuration not stated) | inactive: 86% |
| Cc1cccc(C)c1OP(C)(=O)Nc1ccc(SC(F)(F)F)cc1 (configuration not stated) | inactive: 103% |
| CP(=O)(Oc1ccccc1)OC(c1ccccc1)C(F)(F)F (configuration not stated) | inactive: 104% |
| CCc1ccc(OP(C)(=O)N2CCN(c3ccc([N+](=O)[O-])cc3)CC2)cc1 (configuration not stated) | inactive: 88% |
| CP(=O)(NC(=O)Nc1ccccc1)Oc1ccccc1 (configuration not stated) | inactive: 95% |
| Cc1cc(C)cc(OP(C)(=O)Nc2ccc(SC(F)(F)F)cc2)c1 (configuration not stated) | inactive: 122% |
| Cc1nc2ccc3ccccc3c2s1.O=[N+]([O-])c1cc([N+](=O)[O-])c(O)c([N+](=O)[O-])c1 | inactive: 103% |

| SMILES | binding response (% of control) |
| --- | --- |
| O=[N+]([O-])c1cc([N+](=O)[O-])c(-n2nnc3ccccc32)c([N+](=O)[O-])c1 | inactive: 103% |
| CN1CCCCC1COC(=O)C1(O)c2ccccc2CCc2ccccc21 (configuration not stated) | inactive: 98% |
| COc1ccccc1OP(C)(=O)Nc1c(C)cccc1C (configuration not stated) | active: 1% [inhibitor] |
| CP(=O)(Nc1ccc(SC(F)(F)F)cc1)Oc1ccccc1 (configuration not stated) | inactive: 102% |
| CCCOc1ccc(NP(C)(=O)Oc2ccc(Cl)cc2)cc1 (configuration not stated) | inactive: 87% |
| O=[N+]([O-])c1cc([N+](=O)[O-])c(Nc2nnnn2CCO)c([N+](=O)[O-])c1 | inactive: 112% |
| CCOC(=O)C(CC)C1=NC(C)(C)Cc2ccccc21.O=[N+]([O-])c1cc([N+](=O)[O-])c(O)c([N+](=O)[O-])c1 (configuration not stated) | inactive: 127% |
| CC1=NCCc2c1[nH]c1ccccc21.O=[N+]([O-])c1cc([N+](=O)[O-])c(O)c([N+](=O)[O-])c1 | inactive: 100% |
| O=C(O)c1cccc(Nc2c([N+](=O)[O-])cc([N+](=O)[O-])cc2[N+](=O)[O-])c1 | inactive: 90% |
| CP(=O)(Nc1cccc(Br)c1)Oc1ccccc1 (configuration not stated) | inactive: 104% |
| Cc1cc(C)cc(OP(C)(=O)Nc2ccccn2)c1 (configuration not stated) | inactive: 101% |
| Cc1ccc(C)c(NP(C)(=O)Oc2ccccc2)c1 (configuration not stated) | inactive: 105% |
| COc1ccccc1OP(C)(=O)Nc1cccc(Br)c1 (configuration not stated) | inactive: 95% |
| Cc1cc(C)cc(OP(C)(=O)Nc2ccc(C)cc2C)c1 (configuration not stated) | inactive: 108% |
| CCOC(=O)c1ccc(NP(C)(=O)Oc2cc(C)cc(C)c2)cc1 (configuration not stated) | inactive: 104% |
| O=C(OCCN1CCN(CCOCc2ccccc2)CC1)C(O)(c1ccccc1)c1ccccc1 | inactive: 91% |
| O=C(OC1CN2CCC1CC2)c1ccc([N+](=O)[O-])cc1 (configuration not stated) | inactive: 100% |
| COc1ccc2c(c1O)-c1c(O)c(OC)cc3c1[C@H](C2)[N+](C)(C)CC3.O=[N+]([O-])c1cc([N+](=O)[O-])c([O-])c([N+](=O)[O-])c1[O-] | inactive: 98% |
| CC(C)c1ccc(OP(C)(=O)Nc2ccc(SC(F)(F)F)cc2)cc1 (configuration not stated) | inactive: 97% |
| CP(=O)(Nc1ccccc1F)Oc1ccccc1 (configuration not stated) | inactive: 106% |
| CCN(CC)CCCOC(=O)C(O)(c1ccccc1)C1CCCCC1 (configuration not stated) | active: 122% |

| SMILES | binding response (% of control) |
| --- | --- |
| CCCCCOc1ccc(NP(C)(=O)Oc2ccc(Cl)cc2Cl)cc1 (configuration not stated) | inactive: 98% |
| O=[N+]([O-])c1cc([N+](=O)[O-])c(OC2CCCCC2O)c([N+](=O)[O-])c1 (configuration not stated) | inactive: 102% |
| CP(=O)(Nc1ccccc1)Oc1ccc(F)cc1 (configuration not stated) | inactive: 100% |
| COc1ccc(OP(C)(=O)Nc2ccc(SC(F)(F)F)cc2)cc1 (configuration not stated) | inactive: 82% |
| CCOC(=O)c1ccc(NP(C)(=O)Oc2ccc(F)cc2)cc1 (configuration not stated) | inactive: 93% |
| Cc1cc(-c2cccc3ccccc23)c(C)cn1.O=[N+]([O-])c1cc([N+](=O)[O-])c(O)c([N+](=O)[O-])c1 | inactive: 99% |
| O=[N+]([O-])c1cc([N+](=O)[O-])c(NCC2CCS(=O)(=O)C2)c([N+](=O)[O-])c1 (configuration not stated) | inactive: 102% |
| O=[N+]([O-])c1ccc(OP2(=O)COCCO2)cc1 (configuration not stated) | inactive: 107% |
| COc1ccc(OP(C)(=O)Nc2cccc(Br)c2)cc1 (configuration not stated) | inactive: 103% |
| COc1ccc(NP(C)(=O)Oc2ccccc2OC)cc1 (configuration not stated) | inactive: 104% |
| CN(C)CCOC(=O)C(O)(c1ccccc1)C1CCCCC1 (configuration not stated) | inactive: 92% |
| CP(=O)(Nc1ccc2c(c1)OCCO2)Oc1ccccc1 (configuration not stated) | inactive: 109% |
| Cc1ccccc1NP(C)(=O)Nc1ccccc1C | inactive: 102% |
| CP(=O)(Nc1ccc(SC(F)(F)F)cc1)Oc1ccc(F)cc1 (configuration not stated) | inactive: 91% |
| CCOP(C)(=S)SCC(=O)NC(C)(CC)C(=O)O (configuration not stated) | inactive: 102% |
| CP(=O)(Nc1ccc(Cl)cc1)Oc1ccc(F)cc1 (configuration not stated) | active: 124% |
| CC(C)(C)c1ccc(OP(C)(=O)O)cc1 | inactive: 102% |
| COc1ccccc1OP(C)(=O)Nc1ccccc1Br (configuration not stated) | inactive: 95% |
| CN(C)C(=O)c1c([N+](=O)[O-])cc([N+](=O)[O-])cc1[N+](=O)[O-] | inactive: 100% |
| CCN(CC)CC(O)COC(=O)C(O)(c1ccccc1)C1CCCCC1 (configuration not stated) | inactive: 100% |
| COc1ccc(OP(C)(=O)Nc2ccc(Br)cc2)cc1 (configuration not stated) | inactive: 96% |

| SMILES | binding response (% of control) |
| --- | --- |
| CP(=O)(Oc1ccccc1)N1CCOC1=O (configuration not stated) | inactive: 95% |
| CCc1ccc(OP(C)(=O)Nc2cccnc2)cc1 (configuration not stated) | inactive: 88% |
| COc1ccccc1OP(C)(=O)Nc1c(C)n(C)n(-c2ccccc2)c1=O (configuration not stated) | inactive: 109% |
| O=C(OCCCN1CCCC1)C(O)(c1ccccc1)C1CCCCC1 (configuration not stated) | inactive: 94% |
| CP(=O)(OC12CC3CC(CC(C3)C1)C2)OC12CC3CC(CC(C3)C1)C2 | inactive: 101% |
| CCOC(=O)c1ccc(NP(C)(=O)Oc2ccc(Cl)cc2)cc1 (configuration not stated) | inactive: 100% |
| Cc1nc2ccc3ccccc3c2o1.O=[N+]([O-])c1cc([N+](=O)[O-])c(O)c([N+](=O)[O-])c1 | inactive: 95% |
| CP(=O)(OCCOc1ccccc1)OCCOc1ccccc1 | inactive: 110% |
| CP(=O)(Nc1ccc(Cl)cc1Cl)Oc1ccccc1 (configuration not stated) | inactive: 95% |
| Cc1cc(C)cc(OP(C)(=O)Nc2cccc(C(F)(F)F)c2)c1 (configuration not stated) | inactive: 101% |
| COc1ccc(OP(C)(=O)Nc2ccccc2Br)cc1 (configuration not stated) | inactive: 101% |
| COc1ccccc1OP(C)(=O)Nc1ccc(C)c(C)c1 (configuration not stated) | inactive: 97% |
| Cc1c(NP(C)(=O)Oc2ccc(C(C)C)cc2)c(=O)n(-c2ccccc2)n1C (configuration not stated) | inactive: 109% |
| CCc1ccc(OP(C)(=O)O)cc1 | inactive: 106% |
| CP(=O)(Nc1ccccn1)Oc1ccccc1 (configuration not stated) | inactive: 102% |
| COc1ccccc1OP(C)(=O)Nc1ccc(C)cc1C (configuration not stated) | inactive: 105% |
| COc1ccccc1OP(C)(=O)Nc1ccc(Br)cc1 (configuration not stated) | inactive: 95% |
| CN(C)CCOC(=O)C(O)(c1ccccc1)C1CCCC1 (configuration not stated) | inactive: 105% |
| COc1ccc(OP(C)(=O)Nc2ccccn2)cc1 (configuration not stated) | inactive: 103% |
